Data on one compound can be found in article PMC4408927 (Nature, 2015).

Amino acid sequences for entries named in this document (tags omitted). A change or cut given only in a name is not applied to a line headed by its entry.
UniProt P47900, whole entry A106W: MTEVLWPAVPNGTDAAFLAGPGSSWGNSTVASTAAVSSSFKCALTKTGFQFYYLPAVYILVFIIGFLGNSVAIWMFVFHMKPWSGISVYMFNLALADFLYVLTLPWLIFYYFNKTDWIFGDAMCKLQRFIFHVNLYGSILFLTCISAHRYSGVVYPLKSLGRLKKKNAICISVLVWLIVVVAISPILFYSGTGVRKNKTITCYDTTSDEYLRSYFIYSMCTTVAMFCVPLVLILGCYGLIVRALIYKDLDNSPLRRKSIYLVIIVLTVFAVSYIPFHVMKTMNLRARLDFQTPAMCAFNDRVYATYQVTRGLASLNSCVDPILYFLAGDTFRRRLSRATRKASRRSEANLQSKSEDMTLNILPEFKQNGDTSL
UniProt P47900, whole entry Y303F: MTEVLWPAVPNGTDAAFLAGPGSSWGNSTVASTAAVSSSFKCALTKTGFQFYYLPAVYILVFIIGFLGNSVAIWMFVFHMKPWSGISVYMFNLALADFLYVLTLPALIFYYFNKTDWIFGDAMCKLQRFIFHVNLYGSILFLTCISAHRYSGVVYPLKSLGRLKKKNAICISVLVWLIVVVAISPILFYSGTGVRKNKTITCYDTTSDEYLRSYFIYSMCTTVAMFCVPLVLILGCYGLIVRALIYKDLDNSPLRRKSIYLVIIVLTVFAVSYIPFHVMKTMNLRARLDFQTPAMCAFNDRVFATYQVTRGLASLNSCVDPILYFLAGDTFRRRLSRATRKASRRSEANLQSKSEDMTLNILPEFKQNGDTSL

For assay [1], the target named is T1, human P2Y1R WT (Homo sapiens, UniProt P47900). In words: Saturation binding of [3H]2MeSADP, Sf9 membranes.
The target in assay [2] is T1, human P2Y1R WT. In words: Saturation binding of [3H]2MeSADP, COS-7 membranes.
Assay [3] addresses human P2Y1R WT+A106^2.59W mutation (Homo sapiens, UniProt P47900, A106W). In words: Saturation binding of [3H]2MeSADP, COS-7 membranes.
In assay [4] the target is human P2Y1R Construct 1+K46A mutation (Homo sapiens, UniProt P47900, D320N/INS247MKKYTCTVCGYIYNPEDG/INS251GVNPGTDFKDIPDDWVCPLCGVGKDQFEEVE/K46A/L249P/S252E). In words: biochemical.
Assay [5] addresses human P2Y1R Construct 2+A106^2.59W mutation (Homo sapiens, UniProt P47900, A106W/D320N/INS247MKKYTCTVCGYIYNPEDG/INS251GVNPGTDFKDIPDDWVCPLCGVGKDQFEEVE/L249P/S252E). In words: biochemical.
For assay [6], the target named is human P2Y1R Construct 2+T103^2.56W mutation (Homo sapiens, UniProt P47900, D320N/INS247MKKYTCTVCGYIYNPEDG/INS251GVNPGTDFKDIPDDWVCPLCGVGKDQFEEVE/L249P/S252E/T103W). As to the kind of experiment: biochemical.
The target in assay [7] is human P2Y1R Construct 1 (Homo sapiens, UniProt P47900, D320N/INS247MKKYTCTVCGYIYNPEDG/INS251GVNPGTDFKDIPDDWVCPLCGVGKDQFEEVE/L249P/S252E). In words: Saturation binding of [3H]2MeSADP, Sf9 membranes.
For assay [8], the target named is human P2Y1R Construct 1+R195A mutation (Homo sapiens, UniProt P47900, D320N/INS247MKKYTCTVCGYIYNPEDG/INS251GVNPGTDFKDIPDDWVCPLCGVGKDQFEEVE/L249P/R195A/S252E). In words: biochemical.
In assay [9] the target is human P2Y1R Construct 1+A286^6.61W mutation (Homo sapiens, UniProt P47900, A286W/D320N/INS247MKKYTCTVCGYIYNPEDG/INS251GVNPGTDFKDIPDDWVCPLCGVGKDQFEEVE/L249P/S252E). As to the kind of experiment: biochemical.
Assay [10] has as its target human P2Y1R Construct 1+Y306^7.35F mutation (Homo sapiens, UniProt P47900, D320N/INS247MKKYTCTVCGYIYNPEDG/INS251GVNPGTDFKDIPDDWVCPLCGVGKDQFEEVE/L249P/S252E/Y306F). As to the kind of experiment: biochemical.
The target of assay [11] is human P2Y1R Construct 2+A106^2.59F mutation (Homo sapiens, UniProt P47900, A106F/D320N/INS247MKKYTCTVCGYIYNPEDG/INS251GVNPGTDFKDIPDDWVCPLCGVGKDQFEEVE/L249P/S252E). As to the kind of experiment: biochemical.
Assay [12] addresses human P2Y1R Construct 2+A106^2.59L mutation (Homo sapiens, UniProt P47900, A106L/D320N/INS247MKKYTCTVCGYIYNPEDG/INS251GVNPGTDFKDIPDDWVCPLCGVGKDQFEEVE/L249P/S252E). In words: biochemical.
Assay [13] addresses human P2Y1R Construct 1+Y303^7.32F mutation (Homo sapiens, UniProt P47900, D320N/INS247MKKYTCTVCGYIYNPEDG/INS251GVNPGTDFKDIPDDWVCPLCGVGKDQFEEVE/L249P/S252E/Y303F). In words: biochemical.
Assay [14] deals with human P2Y1R Construct 2 (UniProt P0ABE7+P47900, D320N/H124I/INS247MKKYTCTVCGYIYNPEDG/INS251GVNPGTDFKDIPDDWVCPLCGVGKDQFEEVE/L249P/M29W/S252E). In words: Saturation binding of [3H]2MeSADP, Sf9 membranes.
Assay [15] deals with human P2Y1R WT+Y303^7.32F mutation (Homo sapiens, UniProt P47900, Y303F). As to the kind of experiment: Saturation binding of [3H]2MeSADP, COS-7 membranes.

The Kd is a measure of binding affinity in units of concentration. The low end stands for a tighter complex, the high end for a looser complex.

In the case of `CSc1nc(N)c2ncn([C@@H]3O[C@H](COP(=O)(O)OP(=O)(O)O)[C@@H](O)[C@H]3O)c2n1` [2MeSADP, 2-methylthio-adenosine 5′-diphosphate], the Kd in assay [1] amounted to 53.6 ± 6.1 nM; in [2], 1.88 ± 0.59 nM; in assay [3], 1.96 ± 0.11 nM; in [4], 68.3 ± 10 nM; in assay [5], 23.4 ± 5.8 nM; in [6] it was 45 ± 11.6 nM. Further, the Kd in [7] was 33.7 ± 12.2 nM; in [8], 59.8 ± 11.6 nM; in assay [9], 47.4 ± 10.5 nM; in [10], greater than 300 nM; in assay [11], 57.4 ± 21.8 nM; in [12], 41.9 ± 4.1 nM. Besides, the Kd came out at 41.9 ± 11 nM in assay [13], 36.7 ± 7.6 nM in [14] and 1.78 ± 0.16 nM in assay [15].
